Earlier results in PubChem BioAssay AID1811.

Columns and labels:
Assay in all cases: PubChem AID 1811
[1] = target: apoptosis regulator bcl-x; settings: PDB complex binding affinities from literature; Kd when reported
[2] = target: cell division protein kinase 6; settings: PDB complex binding affinities from literature; IC50 when reported
[3] = target: sarcoplasmic/endoplasmic reticulum calcium; settings: PDB complex binding affinities from literature; Kd when reported
[4] = target: thrombin light chain; settings: PDB complex binding affinities from literature; IC50 when reported
[5] = target: sialidase; settings: PDB complex binding affinities from literature; Ki when reported
[6] = target: xaa-pro aminopeptidase; settings: PDB complex binding affinities from literature; Ki when reported
[7] = target: mta/sah nucleosidase; settings: PDB complex binding affinities from literature; Ki when reported
[8] = target: a/g-specific adenine glycosylase; settings: PDB complex binding affinities from literature; Kd when reported
[9] = target: 1-deoxy-d-xylulose 5-phosphate reductoisomerase; settings: PDB complex binding affinities from literature; IC50 when reported
[10] = target: osmoprotection protein (prox); settings: PDB complex binding affinities from literature; Kd when reported
[11] = target: phosphonoacetaldehyde hydrolase; settings: PDB complex binding affinities from literature; Ki when reported
[12] = target: nuclear receptor ror-beta; settings: PDB complex binding affinities from literature; Ki when reported
[13] = target: glutathione s-transferase class pi; settings: PDB complex binding affinities from literature; Kd when reported
[14] = target: glutathione s-transferase; settings: PDB complex binding affinities from literature; Kd when reported
[15] = target: DNA gyrase b; settings: PDB complex binding affinities from literature; Kd when reported
[16] = target: odorant-binding protein; settings: PDB complex binding affinities from literature; Kd when reported
[17] = target: major urinary protein; settings: PDB complex binding affinities from literature; Kd when reported
[18] = target: auxin-binding protein 1; settings: PDB complex binding affinities from literature; Kd when reported
[19] = target: adenosine deaminase; settings: PDB complex binding affinities from literature; IC50 when reported
[20] = target: beta-galactosidase; settings: PDB complex binding affinities from literature; Ki when reported
[21] = target: adam 17; settings: PDB complex binding affinities from literature; Kd when reported
[22] = target: histamine n-methyltransferase; settings: PDB complex binding affinities from literature; Ki when reported
[23] = target: uridine phosphorylase; settings: PDB complex binding affinities from literature; Kd when reported
[24] = target: camp-specific phosphodiesterase 4d; settings: PDB complex binding affinities from literature; IC50 when reported
[25] = target: phosphoenolpyruvate carboxykinase; settings: PDB complex binding affinities from literature; Ki when reported
[26] = target: coagulation factor vii; settings: PDB complex binding affinities from literature; IC50 when reported
[27] = target: 3-phosphoshikimate 1-carboxyvinyltransferase; settings: PDB complex binding affinities from literature; IC50 when reported
[28] = target: shikimate kinase; settings: PDB complex binding affinities from literature; Kd when reported
[29] = target: HIV-1 protease; settings: PDB complex binding affinities from literature; Ki when reported
[30] = target: Gag-Pol polyprotein (Pr160Gag-Pol); settings: PDB complex binding affinities from literature; Kd when reported
[31] = target: hiv-1 protease; settings: PDB complex binding affinities from literature; Ki when reported
[32] = target: ermc' methyltransferase; settings: PDB complex binding affinities from literature; Ki when reported
[33] = target: adenine-n6-dna-methyltransferase taqi; settings: PDB complex binding affinities from literature; Kd when reported
[34] = target: aromatic amino acid aminotransferase; settings: PDB complex binding affinities from literature; Kd when reported
[35] = target: dipeptidyl peptidase 4; settings: PDB complex binding affinities from literature; Ki when reported
[36] = target: 5(3)-deoxyribonucleotidase; settings: PDB complex binding affinities from literature; Ki when reported
[37] = target: beta-lactamase ctx-m-9a; settings: PDB complex binding affinities from literature; Ki when reported
[38] = target: beta-lactamase tem; settings: PDB complex binding affinities from literature; Ki when reported
[39] = target: beta-lactamase; settings: PDB complex binding affinities from literature; Ki when reported
[40] = target: baculoviral iap repeat-containing protein 7; settings: PDB complex binding affinities from literature; Ki when reported
[41] = target: galectin-2; settings: PDB complex binding affinities from literature; Kd when reported
[42] = target: serine/threonine-protein kinase pknb; settings: PDB complex binding affinities from literature; IC50 when reported
[43] = target: phosphoenolpyruvate phosphomutase; settings: PDB complex binding affinities from literature; Ki when reported
[44] = target: neutrophil gelatinase-associated lipocalin; settings: PDB complex binding affinities from literature; Kd when reported
[45] = target: kes1 protein; settings: PDB complex binding affinities from literature; Kd when reported
[46] = target: diaminopimelate decarboxylase; settings: PDB complex binding affinities from literature; Ki when reported

Question: Which Kd [1] does the source give for O=C(O)c1ccc(-c2ccc(F)cc2)cc1 here?
Answer: 300 µM

Question: With CC(C)[C@@H](CO)Nc1nc(Nc2cc(N)cc(Cl)c2)c2ncn(C(C)C)c2n1 as the molecule, how does the IC50 [2] read?
Answer: 0.45 µM

Question: Which Kd [3] does the source give for CC(C)(C)c1cc(O)c(C(C)(C)C)cc1O here?
Answer: 0.02 µM

Question: With N=C(N)c1ccc(CNC(=O)[C@@H]2CCCN2C(=O)[C@@H](CC2CCCCC2)NCC(=O)O)s1 as the molecule, how does the IC50 [4] read?
Answer: 0.00098 µM

Question: For CC(=O)N[C@H]1[C@H]([C@H](O)[C@H](O)CO)OC(C(=O)O)=C[C@@H]1O, which Ki [5] is on record?
Answer: 140 µM

Question: For C[C@H](NC(=O)[C@@H]1CCCN1C(=O)[C@@H]1CCCN1C(=O)[C@@H](O)[C@H](N)Cc1ccccc1)C(N)=O, which Ki [6] is on record?
Answer: 14 µM

Question: For Nc1ncnc2nc[nH]c12, which Ki [7] is on record?
Answer: 300 µM

Question: What about the Kd [8] of the same molecule?
Answer: 0.001 µM

Question: With O=P(O)(O)C(Nc1ccc(Cl)cn1)P(=O)(O)O as the molecule, how does the IC50 [9] read?
Answer: 7 µM

Question: For C[N+]1(C)CCC[C@H]1C(=O)O, which Kd [10] is on record?
Answer: 0.05 µM

Question: Which Ki [11] does the source give for C=CS(=O)(=O)O here?
Answer: 1790 µM

Question: Which Ki [12] does the source give for CC(/C=C/C=C(\C)c1cc(C(C)(C)C)cc(C(C)(C)C)c1)=C\C(=O)O here?
Answer: 0.16 µM

Question: Which Kd [13] does the source give for N[C@@H](CCC(=O)N[C@@H](CS)C(=O)NCC(=O)O)C(=O)O here?
Answer: 668 µM

Question: What about the Kd [14] of the same molecule?
Answer: 90 µM

Question: For CO[C@@H]1[C@@H](OC(=O)c2ccc(C)[nH]2)[C@@H](O)[C@H](Oc2ccc3c(O)c(NC(=O)c4ccc(O)c(CC=C(C)C)c4)c(=O)oc3c2Cl)OC1(C)C, which Kd [15] is on record?
Answer: 0.0012 µM

Question: With COc1nccnc1CC(C)C as the molecule, how does the Kd [16] read?
Answer: 0.8 µM

Question: And the Kd [17]?
Answer: 0.3 µM

Question: Which Kd [18] does the source give for O=C(O)Cc1cccc2ccccc12 here?
Answer: 0.15 µM

Question: For C[C@H](O)C(CCc1cccc2nc(-c3ccc(Cl)cc3)oc12)n1cnc(C(N)=O)c1 (stereo partly specified), which IC50 [19] is on record?
Answer: 0.0086 µM

Question: With CC(C)S[C@@H]1O[C@H](CO)[C@H](O)[C@H](O)[C@H]1O as the molecule, how does the Ki [20] read?
Answer: 590 µM

Question: For Cc1cc(COc2ccc([C@]3(C)CCN([C@H](C)C(=O)NO)C3=O)cc2)c2ccccc2n1, which Kd [21] is on record?
Answer: < 2 pM

Question: For CCN(CC)Cc1cc(Nc2ccnc3cc(Cl)ccc23)ccc1O, which Ki [22] is on record?
Answer: 0.0186 µM

Question: For CSC[C@H]1N[C@@H](c2c[nH]c3c(=O)[nH]cnc23)[C@H](O)[C@@H]1O, which Kd [23] is on record?
Answer: 0.0027 µM

Question: Which IC50 [24] does the source give for COc1cc(-c2ccc(=O)[nH]n2)ccc1OC(F)F here?
Answer: 0.16 µM

Question: For O=C(O)CC(=O)O, which Ki [25] is on record?
Answer: > 50000 µM

Question: With CCS(=O)(=O)N[C@H](Cc1ccc(-c2ccccc2)cc1)C(=O)N[C@@H](CCC(N)=O)C(=O)NCc1ccc(C(=N)N)cc1 as the molecule, how does the IC50 [26] read?
Answer: 0.093 µM

Question: Which results are given for O=C(O)C1=C[C@@H](O)[C@@H](O)[C@H](O)C1?
Answer: IC50 [27]: 1200 µM; Kd [28]: 44 µM

Question: With Cc1cccc(C)c1OCC(=O)N[C@@H](Cc1ccccc1)[C@@H](O)C[C@H](Cc1ccccc1)NC(=O)[C@H](C(C)C)N1CCCNC1=O as the molecule, how does the Ki [29] read?
Answer: 5 pM

Question: And the Kd [30]?
Answer: 0.031 nM

Question: And the Ki [31]?
Answer: 1.3 pM

Question: Which Ki [32] does the source give for Nc1ncnc2c1ncn2[C@@H]1O[C@H](C[C@@H](N)CC[C@H](N)C(=O)O)[C@@H](O)[C@H]1O here?
Answer: 18 µM

Question: What about the Kd [33] of the same molecule?
Answer: 0.34 µM

Question: For O=C(O)CCCc1ccccc1, which Kd [34] is on record?
Answer: 5000 µM

Question: Which Ki [35] does the source give for Cn1c(=O)c2c(nc(N3CCNCC3)n2Cc2ccccc2)n(C)c1=O here?
Answer: 0.638 µM

Question: Which Ki [36] does the source give for Cc1cn([C@H]2C[C@H]3O[C@](c4ccccc4)(P(=O)(O)O)OC[C@H]3O2)c(=O)[nH]c1=O here?
Answer: 70 µM

Question: With O=C(Cc1cccs1)N[C@H]([Al])c1cccc(C(=O)O)c1 as the molecule, how does the Ki [37] read?
Answer: 0.578 µM

Question: And the Ki [38]?
Answer: 0.064 µM

Question: And the Ki [39]?
Answer: 0.017 µM

Question: Which Ki [40] does the source give for CC[C@H](C)[C@H](NC(=O)[C@@H]1CCCN1C(=O)[C@@H](NC(=O)[C@H](C)N)C(C)C)C(=O)O here?
Answer: 0.5 µM

Question: For CC(=O)N[C@@H]1[C@@H](O[C@@H]2O[C@H](CO)[C@H](O)[C@H](O)[C@H]2O)[C@@H](O)[C@H](CO)O[C@H]1O, which Kd [41] is on record?
Answer: 62.2 µM

Question: Which IC50 [42] does the source give for O=C1c2c(O)ccc(O)c2C(=O)c2c(NCCNCCO)ccc(NCCNCCO)c21 here?
Answer: 0.8 µM

Question: For O=C(O)C(=O)CS(=O)(=O)O, which Ki [43] is on record?
Answer: 22 µM

Question: Which Kd [44] does the source give for O=C(O)c1cccc(O)c1O here?
Answer: 0.0079 µM

Question: Which Kd [45] does the source give for CC(C)CCC[C@@H](C)[C@H]1CC[C@H]2[C@@H]3CC=C4C[C@@H](O)CC[C@]4(C)[C@H]3CC[C@]12C here?
Answer: 0.3 µM

Question: Which Ki [46] does the source give for O=C(O)CCCCCCCC(=O)O here?
Answer: 89 µM
